Measured values as given in patent publication US6864402B1, “Chronic hepatitis virus infection and clonal hepatocellular carcinoma in mouse repopulated livers” (Albert Einstein College of Medicine of Yeshiva University, priority 1998, dated 2005).

Tested on: WHV replication
Assay: Antiviral studies in WHV replicating chimeric uPA/RAG-2 mice (serum WHV DNA dot blot)
Format: in vivo

Q: What does the source list for Interferon-alpha-2b?
A: WHV replication (serum dot blot WHV DNA) during treatment (mouse #1063, interferon-alpha-2b 135 IU/g body weight intramuscularly daily, after 15 days): greater than four logs to non-detectable levels; WHV replication after withdrawal of agent, compared with pretreatment (mouse #1063, upon withdrawal of interferon-alpha): rebounded to levels higher than pretreatment WHV levels; WHV replication (serum WHV DNA) during treatment (mouse #1418 (higher WHV pretreatment levels), interferon-alpha-2b 135 IU/g i.m. daily for 15 days): only a limited response; WHV replication after withdrawal of agent (mouse #1418, after drug withdrawal): rebound effect upon viral replication similar to mouse #1063
